The assay relates to NCI-H526 cells. In words: In vitro cell inhibition assay - NCI-H526 cell proliferation (CellTiter-Glo). It counts as cell-based. Conditions: Homo sapiens, NCI-H526, 120 h, H526 small cell lung cancer cell proliferation, 5 days. The protocol: 6. In Vitro Cell Inhibition Assay—NCI-H526 Cell Proliferation
The inhibitory effect of the compounds on cell proliferation was assessed by detecting the number of viable cells using CellTiter-Glo® reagent. NCI-H526 cells in the logarithmic growth phase were collected and inoculated into transparent bottom 96-well plates at a density 1×10^3 cells per well with 100 μL of medium, and incubated at 37° C., 5% CO2 overnight. The compounds were sequentially diluted in a 5-fold concentration gradient with DMSO to obtain 8 different concentrations. These were then diluted with RPMI-640 (containing 10% FBS) cell culture medium to obtain the compound working solution (2×), which was added to the cell supernatant at 100 μL per well. The incubation continued for 5 days at 37° C., 5% CO2. The plate was then removed and equilibrated at room temperature (25° C.) along with the CellTiter-Glo® mixing reagent for 10-30 minutes; 80 μL of the culture medium was carefully aspirated from each well, and 80 μL of CellTiter-Glo® reagent was added. […] The 96-well plate was subsequently placed on a multifunctional microplate reader to record the Luminescence values (RLU).
The inhibition rate was calculated using the following formula: […]
The IC50 value was determined by fitting the inhibition rate by GraphPad Prism software.
In general terms: Cellular ATP, detected with luciferase, serves as a proxy for viable cell number.

The term IC50 denotes the point on the concentration scale where inhibition reaches its midpoint.

Counter-ions that a name gives are not always drawn.

For the compound `N#Cc1ccc(-c2c(-c3ccc(F)c(O)c3)cnc(N3CCC(NCc4ccc(/C=C/C(=O)NO)cc4)CC3)c2C#N)cc1F` [Example 97, (E)-3-(4-((1-(3-Cyano-4-(4-cyano-3-fluorophenyl)-5-(4-fluoro-3-hydroxyphenyl)pyridin-2-yl)piperidin-4-yl)amino)methyl) phenyl)-N-hydroxyacrylamide formate], the IC50 was 0.0142 µM. This lies in the double-digit nanomolar range.
